For assay [1], the target named is Nociceptin receptor (Homo sapiens) (UniProt P41146). As to the kind of experiment: Agonist activity at human nociceptin receptor expressed in CHO cell membrane assessed as stimulation of [35S]GTP-gamma-S binding at 10 uM. In general terms: GTPγS resists hydrolysis and so accumulates on activated G proteins.
The species named for assay [2] is Homo sapiens. As to the kind of experiment: Selectivity for human nociceptin receptor over human kappa opioid receptor.
The target in assay [3] is Nociceptin receptor (Homo sapiens) (UniProt P41146). The assay is described as follows: Agonist activity at human nociceptin receptor expressed in CHO cell membrane assessed as stimulation of [35S]GTP-gamma-S binding at 0.1 uM.
The species entered for assay [4] is Homo sapiens. The assay is described as follows: Selectivity for human nociceptin receptor over human mu opioid receptor.

Amino acid sequences for entries named in this document (tags omitted). A change or cut given only in a name is not applied to a line headed by its entry.
UniProt P41146: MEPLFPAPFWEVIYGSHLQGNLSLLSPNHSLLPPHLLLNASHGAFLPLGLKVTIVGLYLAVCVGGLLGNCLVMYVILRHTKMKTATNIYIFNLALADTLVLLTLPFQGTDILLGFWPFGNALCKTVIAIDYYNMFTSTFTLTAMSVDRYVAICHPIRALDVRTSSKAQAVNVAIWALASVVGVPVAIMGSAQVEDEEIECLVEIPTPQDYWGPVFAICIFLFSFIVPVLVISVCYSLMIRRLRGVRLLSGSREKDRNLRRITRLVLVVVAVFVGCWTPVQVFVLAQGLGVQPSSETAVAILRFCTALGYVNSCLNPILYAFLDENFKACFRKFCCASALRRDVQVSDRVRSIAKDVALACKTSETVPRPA

Each structure is given as a SMILES string.

For `O=C1NCN(c2ccccc2)C12CCN(C(c1ccccc1)c1ccccc1Cl)CC2` (stereo not drawn), in assay [1], the Activity came out at 87%.

Take `O=C1NCN(c2ccccc2)C12CCN(CC1CCCCC1)CC2`: the Ratio Ki in assay [2] is 8.5.

As for `O=C1NCN(c2ccccc2)C12CCN(C(c1ccccc1F)c1ccccc1F)CC2`, the Activity in assay [1] was found to be 104%.

Take `CC1(C)CCC(N2CCC3(CC2)C(=O)NCN3c2ccccc2)c2cc(Cl)c(Cl)cc21` (stereo not drawn): the Activity in assay [3] came to 104%.

As to `O=C1NCN(c2ccccc2)C12CCN(C(c1ccccc1)c1ccccc1F)CC2` (stereo not drawn), the Activity in assay [1] is 87%.

As to `O=C1NCN(c2ccccc2)C12CCN(Cc1ccccc1)CC2`, the Ratio Ki in assay [2] is 18.

Consider `O=C1NCN(c2ccccc2)C12CCN(C1CCCc3ccccc31)CC2` (stereo not drawn), for which the Ratio Ki is 16 in assay [4] and 46 in assay [2].

Values taken from ChEMBL document CHEMBL1139143, “Synthesis and structure-activity relationships of N-substituted spiropiperidines as nociceptin receptor ligands” (Bioorg Med Chem Lett, 2007).
